# Antibody variant affinities, Ab-14 heavy chain, assay 1

Antigen: PDVDLGDISGINAS, a 14-residue peptide of the SARS-CoV-2 spike HR2 region.

Ab-14 is the parent antibody, in scFv form: VH, then three GGGGS repeats, then VL. The light chain is unchanged in all variants.
VH: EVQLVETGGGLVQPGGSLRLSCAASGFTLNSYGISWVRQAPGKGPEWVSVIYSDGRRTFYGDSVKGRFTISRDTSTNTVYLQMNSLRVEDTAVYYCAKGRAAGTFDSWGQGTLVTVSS
VL: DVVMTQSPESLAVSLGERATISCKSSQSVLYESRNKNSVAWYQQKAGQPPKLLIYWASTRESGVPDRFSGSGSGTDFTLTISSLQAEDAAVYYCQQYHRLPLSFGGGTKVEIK

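Phage display of a naive human antibody library on the peptide gave the parent. Variants in AAYL49 differ from the parent at up to three CDR positions; double and triple changes were sampled at random. The scFvs were displayed on barcoded MATa yeast, the peptide on MATalpha yeast. The frequency of each diploid, read from paired DNA barcodes, reflects how well the two displayed proteins bind. Read counts were normalised to the haploid input and turned into Kd by a linear fit to BCL2-family pairs of known affinity, for each replicate. Each pool was mated in three replicate cultures.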

Positions count from residue 1 of the parent VH; R56L puts L in place of R. Scale: log10 of Kd in nM, estimated from mating counts; low values are strong binders. Averages over replicates are reported, and they cover detected replicates only. "n.d." means that the variant was in the library but no mating with the target was seen in that replicate; the authors take this as a sign of poor binding, and no number exists. In this assay the parent's reference entry averaged 0.65; its copy inside this library read 4.11 (one replicate of three).

changes	log10 Kd (nM) by replicate	mean log10 Kd (nM)	empty controls
R56L	3.16 4.76 2.85	3.59	0 of 9
G33W G55S S107N	n.d. n.d. n.d.	n.d.	2 of 9 (5.57)
Y32F I51G F59R	n.d. n.d. n.d.	n.d.	6 of 9 (4.37)
N30D F105A D106L	-0.47 -0.13 -0.43	-0.34	0 of 9
S31H I34T V64C	4.54 4.22 n.d.	4.38	5 of 9 (4.61)
R57H F59H T104K	n.d. n.d. n.d.	n.d.	0 of 9
V50C K65T G99V	4.51 n.d. n.d.	4.51	1 of 9 (4.75)
Y52V Y60V G61D	n.d. 4.63 5.63	5.13	5 of 9 (4.16)
G33L G55N Y60S	n.d. n.d. n.d.	n.d.	0 of 9
V50C Y52I R56V	n.d. n.d. n.d.	n.d.	1 of 9 (3.91)
I34F S35N Y60E	n.d. n.d. n.d.	n.d.	0 of 9
T104H	1.20 1.31 1.40	1.30	1 of 9 (4.57)
S31N G61W G103L	n.d. 3.28 n.d.	3.28	1 of 9 (2.31)
L29P Y52A T58G	n.d. 5.28 5.75	5.52	4 of 9 (4.22)
K65F D106T S107G	n.d. n.d. n.d.	n.d.	0 of 9
T28C K65I G103N	n.d. 2.44 n.d.	2.44	0 of 9
S31A V64R R100P	n.d. n.d. n.d.	n.d.	2 of 9 (4.17)
S63A G99S	1.92 2.05 2.40	2.12	1 of 9 (3.39)
Y32D R56M A101L	5.46 n.d. n.d.	5.46	2 of 9 (3.91)
T28N V50R G99E	n.d. n.d. n.d.	n.d.	1 of 9 (4.28)
G33I G103R T104L	n.d. 4.81 n.d.	4.81	3 of 9 (4.55)
N30R A102V T104L	0.36 0.56 0.87	0.60	0 of 9
T28V V50F D54I	n.d. 5.02 n.d.	5.02	4 of 9 (4.33)
V50Y G55Q V64W	4.65 3.21 n.d.	3.93	4 of 9 (3.60)
F27W Y52V G99L	4.95 3.64 5.18	4.59	6 of 9 (4.36)
S35I V50I S53I	n.d. n.d. n.d.	n.d.	2 of 9 (4.00)
S31C S53H	n.d. 4.12 n.d.	4.12	2 of 9 (3.68)
N30A S35W G99T	n.d. n.d. n.d.	n.d.	0 of 9
S53Q G55T Y60G	n.d. n.d. n.d.	n.d.	0 of 9
N30S G33S S63Q	n.d. n.d. n.d.	n.d.	2 of 9 (4.59)
S31K S63T S107G	2.04 1.62 2.05	1.90	1 of 9 (4.13)
I51A D54C F59N	4.70 5.55 4.91	5.05	4 of 9 (4.39)
Y52D G99K A101D	4.73 4.62 n.d.	4.68	3 of 9 (4.18)
S35L V64D R100N	n.d. n.d. n.d.	n.d.	0 of 9
I34P R57F S107N	5.74 n.d. n.d.	5.74	0 of 9
I51S D54S T58C	n.d. n.d. n.d.	n.d.	0 of 9
Y32R R56A T104D	n.d. n.d. n.d.	n.d.	0 of 9
Y32C D54L V64W	n.d. n.d. 6.07	6.07	3 of 9 (4.18)
S53A T58Y Y60G	3.09 4.00 n.d.	3.55	0 of 9
F27K K65G G103D	n.d. n.d. n.d.	n.d.	0 of 9
R57Y S63D G103D	n.d. n.d. n.d.	n.d.	0 of 9
G33F I34K G55T	5.15 3.85 4.33	4.44	3 of 9 (4.70)
S53D R100G S107L	n.d. 2.99 n.d.	2.99	1 of 9 (4.74)
I34V R57A F105V	n.d. n.d. n.d.	n.d.	3 of 9 (3.27)
S53C R56M S107I	n.d. n.d. n.d.	n.d.	0 of 9
R56S F105D	1.67 1.77 1.53	1.66	1 of 9 (3.11)

The first 6 entries again:

| changes | log10 Kd (nM) by replicate | mean log10 Kd (nM) | empty controls |
|---|---|---|---|
| R56L | 3.16 4.76 2.85 | 3.59 | 0 of 9 |
| G33W G55S S107N | n.d. n.d. n.d. | n.d. | 2 of 9 (5.57) |
| Y32F I51G F59R | n.d. n.d. n.d. | n.d. | 6 of 9 (4.37) |
| N30D F105A D106L | -0.47 -0.13 -0.43 | -0.34 | 0 of 9 |
| S31H I34T V64C | 4.54 4.22 n.d. | 4.38 | 5 of 9 (4.61) |
| R57H F59H T104K | n.d. n.d. n.d. | n.d. | 0 of 9 |

Nonspecific signal, from three strains lacking the peptide, appeared in 15% of pairings of library AAYL49, centred on 4.06 (5% of these signals below 2.83); values are not corrected for it. For each scFv, signals with the empty controls are counted beside the result, with their mean in brackets.

The measurements come from Engelhart et al. 2022 (doi:10.1038/s41597-022-01779-4) through the FLAb antibody collection.